Earlier results in PMC10369073, “Production, identification, in silico analysis, and cytoprotection on H2O2-induced HUVECs of novel angiotensin-I-converting enzyme inhibitory peptides from Skipjack tuna roes” (Frontiers in Nutrition, 2023).

Sequences of proteins named here, by UniProt entry; tags and fusion partners are left off. Residues count along the entry.
UniProt P12822, 34-1310 limits assumed: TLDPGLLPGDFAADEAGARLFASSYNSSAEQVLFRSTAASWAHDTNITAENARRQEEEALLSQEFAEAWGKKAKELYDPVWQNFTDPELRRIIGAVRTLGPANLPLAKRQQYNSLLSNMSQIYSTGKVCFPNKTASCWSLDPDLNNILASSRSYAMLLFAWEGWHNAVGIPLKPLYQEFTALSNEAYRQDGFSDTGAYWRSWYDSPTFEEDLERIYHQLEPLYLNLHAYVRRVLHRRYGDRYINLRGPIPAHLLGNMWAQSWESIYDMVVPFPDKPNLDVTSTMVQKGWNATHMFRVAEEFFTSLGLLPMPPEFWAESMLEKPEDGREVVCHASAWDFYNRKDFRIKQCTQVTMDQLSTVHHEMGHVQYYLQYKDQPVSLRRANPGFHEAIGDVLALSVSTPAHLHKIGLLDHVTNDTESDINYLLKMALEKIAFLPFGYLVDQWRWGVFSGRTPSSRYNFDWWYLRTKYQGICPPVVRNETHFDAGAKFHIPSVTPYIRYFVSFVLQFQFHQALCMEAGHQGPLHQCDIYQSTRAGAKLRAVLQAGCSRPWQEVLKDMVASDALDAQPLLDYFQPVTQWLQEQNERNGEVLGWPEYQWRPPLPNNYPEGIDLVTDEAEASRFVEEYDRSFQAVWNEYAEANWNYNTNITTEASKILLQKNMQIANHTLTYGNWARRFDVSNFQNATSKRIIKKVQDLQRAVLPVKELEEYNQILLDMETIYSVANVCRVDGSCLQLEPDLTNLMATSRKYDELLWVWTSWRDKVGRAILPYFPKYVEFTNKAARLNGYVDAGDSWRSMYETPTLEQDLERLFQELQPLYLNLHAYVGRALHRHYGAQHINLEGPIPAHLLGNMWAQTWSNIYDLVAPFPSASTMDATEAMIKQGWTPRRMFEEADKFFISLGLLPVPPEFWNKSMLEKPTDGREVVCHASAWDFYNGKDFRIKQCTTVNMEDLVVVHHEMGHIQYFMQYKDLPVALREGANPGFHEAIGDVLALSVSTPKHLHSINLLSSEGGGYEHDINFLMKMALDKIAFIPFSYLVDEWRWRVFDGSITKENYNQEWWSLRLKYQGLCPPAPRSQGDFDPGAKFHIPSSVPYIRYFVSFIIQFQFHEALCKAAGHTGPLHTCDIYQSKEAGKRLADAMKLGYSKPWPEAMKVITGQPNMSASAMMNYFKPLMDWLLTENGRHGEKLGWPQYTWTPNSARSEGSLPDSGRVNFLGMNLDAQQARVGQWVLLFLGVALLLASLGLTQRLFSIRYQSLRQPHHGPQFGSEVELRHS

Target: ACE (Oryctolagus cuniculus, UniProt P12822)
Settings: cited from earlier work
Method: The IC50 values of TRP3, TRP6, TRP9, and TRP12 were 0.93 ± 0.07, 0.79 ± 0.06, 0.49 ± 0.06, and 0.67 ± 0.05 mg/mL, respectively, which were lower than those of ACEi peptides, such as LAPPSTRH (1.31 mg/mL) ([61]), GPWGPA ([24]), VAP (1.71 mg/mL) ([62]), MVGSAPGVL (3.09 mg/mL) ([63]), FRKE (6.97 mg/mL) ([18]), FQK (1.73 mg/mL) ([22]), YLRLHF (1.26 mg/mL) ([64]), NFRPQ (4.28 mg/mL) ([17]), and FEM (2.18 mg/mL) ([37]), etc. || Amino acids are another factor affecting the ability of ACEi peptides. […] Moreover, the C- and N-terminal amino acids are believed to play a crucial function in the activity of ACEi peptides ([21]). Yu et al. ([56]) reported that C-terminus (such as Trp, Tyr, Pro, or Phe) and N-terminus (such as Pro, Phe, Trp, or Met) hydrophobic amino acid residues have positive effects on the ACEi ...

SMILES	ACEi IC50 [µg/mL]
CSCC[C@H](NC(=O)[C@H](CCC(=O)O)NC(=O)[C@@H](N)Cc1ccccc1)C(=O)O	2180
CC(C)[C@H](N)C(=O)N[C@@H](C)C(=O)N1CCC[C@H]1C(=O)O	1710
